# Molecular target: T1, human ERK-2 (Mitogen Activated Kinase 1) (Homo sapiens, UniProt P28482)
# Sequences of proteins named here, by UniProt entry; tags and fusion partners are left off. Residues count along the entry.
# UniProt P28482, 8-360: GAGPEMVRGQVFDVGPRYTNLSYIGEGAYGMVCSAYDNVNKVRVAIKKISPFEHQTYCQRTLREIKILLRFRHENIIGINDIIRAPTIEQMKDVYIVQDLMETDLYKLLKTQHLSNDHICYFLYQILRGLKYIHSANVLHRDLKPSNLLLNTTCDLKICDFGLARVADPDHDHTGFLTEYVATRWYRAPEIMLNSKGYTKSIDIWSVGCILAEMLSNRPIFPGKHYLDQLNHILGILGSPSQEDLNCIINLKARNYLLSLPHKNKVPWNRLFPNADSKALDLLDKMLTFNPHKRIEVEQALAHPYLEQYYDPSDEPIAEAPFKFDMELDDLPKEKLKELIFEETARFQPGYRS
# T1 construct: N-terminal 6-His fusion protein in E. coli and corresponding to aa 8-360; 6-His (N); made in house; host or cells: E. coli
# Assay: ERK-2 Enzymatic Assay
# Type: biochemical
# Details: TABLE I; 5nM ERK-2 enzyme, 25µM ATP, S/T17 peptide substrate; single assay or mean of multiple assays
# Description: Compounds were tested in an enzymatic assay using human ERK-2 (Mitogen Activated Kinase 1), recombinantly expressed as an N-terminal 6-His fusion protein in E. coli and corresponding to aa 8-360. The substrate used was the fluorescent Omnia peptide S/T17 (Invitrogen of Carlsbad, CA; Cat. KNZ1171C). Test compounds were diluted in DMSO in 3-fold serial dilutions at 100x final concentrations. […] The assay was run at ambient temperature in a white 384-well polypropylene plate (Nunc, Inc of Naperville, IL; Cat. 267462) collecting data every 50 seconds for approximately 30 minutes on an Envision plate reader (PerkinElmer, Inc. of Waltham, MA); Excitation 340 nm/Emission 495 nm. The data collected from each well was fit to a straight line and the resulting rates were used to calculate percent of control. Percent of control was plotted against compound concentration and IC50 values were determined using a four-parameter fit. Representative data is in TABLE I and TABLE II. The reported IC50 may be from a single assay or the mean of multiple assays.
row,Structure (SMILES),IC50
1,"C[C@@H](CO)Nc1ncc2ccc(C(=O)N[C@@H](c3ccc(Cl)c(F)c3)c3cnn(C)c3)cc2n1 (stereo in doubt) [Compound I-15, 2-((S)-2-hydroxy-1-methyl-ethylamino)-quinazoline-7-carboxylic acid [(S)-(4-chloro-3-fluoro-phenyl)-(1-methyl-1H-pyrazol-4-yl)-methyl]-amide]",1.2 nM
2,"Cn1cc(C(NC(=O)c2ccc3cnc(NC4CCOCC4)nc3c2)c2ccc(Cl)c(F)c2)cn1 (stereo not drawn) [Compound I-2, 2-(Tetrahydro-pyran-4-ylamino)-quinazoline-7-carboxylic acid [(4-chloro-3-fluoro-phenyl)-(1-methyl-1H-pyrazol-4-yl)-methyl]-amide]",0.8 nM
3,"Cn1cc([C@@H](NC(=O)c2ccc3cnc(NC4CCOCC4)nc3c2)c2ccc(Cl)c(F)c2)cn1 [Compound I-12, 2-(tetrahydropyran-4-ylamino)-quinazoline-7-carboxylic acid [(S)-(4-chloro-3-fluoro-phenyl)-(1-methyl-1H-pyrazol-4-yl)-methyl]-amide]",1.4 nM

# Source: EP2739618B1, “QUINAZOLINE COMPOUNDS AS SERINE/THREONINE KINASE INHIBITORS” (Array Biopharma, Inc., priority 2011, dated 2013)
